## Cyclic peptide permeability, from CycPeptMPDB

PAMPA is the parallel artificial membrane permeability assay, which has no cells and reads passive diffusion.
Permeability is given as log10 of P in cm/s; higher (less negative) is more permeable.

structure (SMILES),PAMPA (log10 cm/s)
CC(C)C[C@@H]1NC(=O)[C@H]2CCCN2C(=O)CN(Cc2ccccc2)C(=O)[C@H](CC(C)C)N(C)C(=O)C[C@H](Cc2ccccc2)NC(=O)[C@@H]2CCCN2C(=O)[C@H](Cc2ccccc2)NC1=O,-5.60
CC(C)C[C@@H]1C(=O)N2CCC[C@H]2C(=O)N(C)[C@H](CC(C)C)C(=O)N[C@@H](Cc2ccccc2)C(=O)N[C@H](C)C(=O)N(C)[C@@H](CC(C)C)C(=O)N1C,-5.23
CC(C)C[C@@H]1NC(=O)[C@@H](CC(C)C)N(C)C(=O)[C@H](C)N(C)C(=O)[C@H]2CCCN2C(=O)[C@H](Cc2ccccc2)NC(=O)CN(Cc2ccccc2)C(=O)[C@H]2CCCN2C1=O,-5.51
CC(C)C[C@@H]1NC(=O)[C@H]2CCCN2C(=O)[C@H](CC(C)C)N(C)C(=O)[C@@H](CC(C)C)N(C)C(=O)[C@H](C)NC(=O)[C@H]2CCCN2C(=O)[C@H](Cc2ccccc2)NC1=O,-6.17
CC(C)C[C@@H]1NC(=O)[C@H]2CCCN2C(=O)CN(Cc2ccccc2)C(=O)[C@@H](CC(C)C)NC(=O)C[C@H](Cc2ccccc2)NC(=O)[C@@H]2CCCN2C(=O)[C@H](Cc2ccccc2)NC1=O,-5.78
CC(C)C[C@@H]1C(=O)N[C@@H](Cc2ccccc2)C(=O)N2CCC[C@@H]2C(=O)N(C)[C@@H](C)C(=O)N(Cc2ccccc2)CC(=O)N(C)[C@@H](CC(C)C)C(=O)N2CCC[C@H]2C(=O)N1C,-5.28
CC(C)C[C@@H]1NC(=O)[C@@H](CC(C)C)NC(=O)C[C@H](Cc2ccccc2)NC(=O)[C@H]2CCCN2C(=O)[C@H](Cc2ccccc2)NC(=O)[C@H](CC(C)C)N(C)C(=O)[C@H]2CCCN2C1=O,-5.37
CCCN1CC(=O)N(C)[C@H](CC(C)C)C(=O)N[C@@H](Cc2ccccc2)CC(=O)N2CCC[C@@H]2C(=O)N[C@H](CC(C)C)C(=O)N[C@@H](Cc2ccccc2)C(=O)N2CCC[C@@H]2C1=O,-5.80
CC(C)C[C@@H]1NC(=O)[C@H](C)N(C)C(=O)[C@@H]2CCCN2C(=O)[C@H](Cc2ccccc2)NC(=O)[C@@H](CC(C)C)N(C)C(=O)[C@@H]2CCCN2C(=O)[C@@H](CC(C)C)N(C)C1=O,-5.32
CC(C)C[C@@H]1NC(=O)[C@H](C)N(C)C(=O)[C@H](Cc2ccccc2)NC(=O)CN(Cc2ccccc2)C(=O)[C@@H]2CCCN2C(=O)[C@@H](CC(C)C)NC1=O,-5.73
CC(C)C[C@@H]1C(=O)N[C@@H](Cc2ccccc2)C(=O)N2CCC[C@H]2C(=O)N(C)[C@H](C)C(=O)N(C)[C@@H](CC(C)C)C(=O)N(C)[C@@H](CC(C)C)C(=O)N2CCC[C@H]2C(=O)N1C,-5.41
CC(C)C[C@@H]1C(=O)N[C@@H](Cc2ccccc2)C(=O)N2CCC[C@H]2C(=O)N[C@@H](Cc2ccccc2)CC(=O)N(C)[C@@H](CC(C)C)C(=O)N[C@@H](Cc2ccccc2)CC(=O)N2CCC[C@H]2C(=O)N1C,-5.97
CCCN1CC(=O)N(C)[C@@H](CC(C)C)C(=O)N(C)[C@H](CC(C)C)C(=O)N2CCC[C@H]2C(=O)N(C)[C@H](CC(C)C)C(=O)N[C@@H](Cc2ccccc2)C(=O)N2CCC[C@@H]2C1=O,-4.78
CC(C)C[C@@H]1NC(=O)[C@@H](C)N(C)C(=O)[C@@H]2CCCN2C(=O)[C@H](Cc2ccccc2)NC(=O)CN(Cc2ccccc2)C(=O)[C@H]2CCCN2C(=O)C[C@H](Cc2ccccc2)NC1=O,-5.81
CC(C)C[C@@H]1NC(=O)[C@@H](C)NC(=O)[C@H](Cc2ccccc2)NC(=O)CN(Cc2ccccc2)C(=O)[C@H]2CCCN2C(=O)[C@@H](CC(C)C)NC1=O,-5.89
CC(C)C[C@H]1NC(=O)[C@@H]2CCCN2C(=O)[C@@H](CC(C)C)NC(=O)CN(Cc2ccccc2)C(=O)[C@@H](C)NC(=O)[C@H](Cc2ccccc2)NC1=O,-6.20
CC(C)C[C@@H]1NC(=O)[C@H](C)NC(=O)[C@H]2CCCN2C(=O)[C@H](Cc2ccccc2)NC(=O)CN(Cc2ccccc2)C(=O)[C@@H]2CCCN2C(=O)[C@@H](CC(C)C)NC1=O,-6.39
CC(C)C[C@@H]1C(=O)N[C@@H](Cc2ccccc2)C(=O)N2CCC[C@H]2C(=O)N[C@@H](Cc2ccccc2)CC(=O)N(C)[C@@H](CC(C)C)C(=O)N[C@H](CC(C)C)C(=O)N2CCC[C@@H]2C(=O)N1C,-5.41
CC(C)C[C@@H]1NC(=O)[C@H](CC(C)C)N(C)C(=O)C[C@H](Cc2ccccc2)NC(=O)[C@H]2CCCN2C(=O)[C@H](Cc2ccccc2)NC(=O)[C@@H](CC(C)C)NC(=O)[C@H]2CCCN2C1=O,-5.26

The first 2 entries again:

{"smiles": "CC(C)C[C@@H]1NC(=O)[C@H]2CCCN2C(=O)CN(Cc2ccccc2)C(=O)[C@H](CC(C)C)N(C)C(=O)C[C@H](Cc2ccccc2)NC(=O)[C@@H]2CCCN2C(=O)[C@H](Cc2ccccc2)NC1=O", "PAMPA (log10 cm/s)": "-5.60"}
{"smiles": "CC(C)C[C@@H]1C(=O)N2CCC[C@H]2C(=O)N(C)[C@H](CC(C)C)C(=O)N[C@@H](Cc2ccccc2)C(=O)N[C@H](C)C(=O)N(C)[C@@H](CC(C)C)C(=O)N1C", "PAMPA (log10 cm/s)": "-5.23"}

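The data file gives no further conditions (lipid, pH, time, direction or concentration), and values from different papers need not be comparable. The list need not hold all peptides of the study. Entries at the database's floor value (log10 P of -10) are not listed.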

Values of Townsend et al. 2020, doi:10.26434/chemrxiv.13335941.v1, as listed in CycPeptMPDB.